Assay results taken from US10246429B2, “Vinyl fluoride cyclopropyl fused thiazin-2-amine compounds as beta-secretase inhibitors and methods of use” (AMGEN INC., priority 2015, dated 2019).

The chains behind the UniProt entries cited, without tags or fusion partners. Residues count along the entry.
UniProt P07339, 65-412, species assumed: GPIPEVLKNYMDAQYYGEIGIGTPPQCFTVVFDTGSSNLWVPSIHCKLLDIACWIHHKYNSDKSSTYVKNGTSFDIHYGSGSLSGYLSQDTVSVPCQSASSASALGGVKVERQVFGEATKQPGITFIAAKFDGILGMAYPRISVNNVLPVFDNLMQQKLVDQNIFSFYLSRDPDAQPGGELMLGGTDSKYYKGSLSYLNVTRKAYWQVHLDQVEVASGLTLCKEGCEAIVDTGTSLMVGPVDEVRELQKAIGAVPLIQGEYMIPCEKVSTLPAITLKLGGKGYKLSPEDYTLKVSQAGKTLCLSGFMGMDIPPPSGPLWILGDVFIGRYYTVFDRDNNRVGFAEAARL
UniProt P56817, 46-501: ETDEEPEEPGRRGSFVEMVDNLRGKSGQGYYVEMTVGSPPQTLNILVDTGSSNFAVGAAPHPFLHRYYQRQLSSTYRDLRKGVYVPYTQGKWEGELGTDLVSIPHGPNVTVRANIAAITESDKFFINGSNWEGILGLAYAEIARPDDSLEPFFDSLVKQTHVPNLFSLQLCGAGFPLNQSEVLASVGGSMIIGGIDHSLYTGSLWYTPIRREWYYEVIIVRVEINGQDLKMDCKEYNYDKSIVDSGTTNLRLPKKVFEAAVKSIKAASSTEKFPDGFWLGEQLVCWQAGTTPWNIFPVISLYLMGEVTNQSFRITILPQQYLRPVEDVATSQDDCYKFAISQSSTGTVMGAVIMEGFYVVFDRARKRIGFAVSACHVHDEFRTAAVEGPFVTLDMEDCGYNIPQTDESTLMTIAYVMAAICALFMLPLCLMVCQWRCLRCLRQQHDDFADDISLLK
UniProt Q9Y5Z0, 63-518: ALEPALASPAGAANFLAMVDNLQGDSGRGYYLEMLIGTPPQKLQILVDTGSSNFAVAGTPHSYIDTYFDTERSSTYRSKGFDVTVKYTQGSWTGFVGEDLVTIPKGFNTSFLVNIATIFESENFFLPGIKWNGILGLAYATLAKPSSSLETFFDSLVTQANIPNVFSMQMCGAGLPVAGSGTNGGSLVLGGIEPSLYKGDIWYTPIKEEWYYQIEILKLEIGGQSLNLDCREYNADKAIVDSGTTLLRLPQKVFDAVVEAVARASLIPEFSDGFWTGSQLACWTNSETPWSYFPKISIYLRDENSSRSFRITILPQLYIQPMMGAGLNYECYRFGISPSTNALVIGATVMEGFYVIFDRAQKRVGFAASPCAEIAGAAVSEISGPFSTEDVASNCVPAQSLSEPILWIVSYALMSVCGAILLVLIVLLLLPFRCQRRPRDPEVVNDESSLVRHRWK

Columns and labels:
Cathepsin D (CatD) = Cathepsin D (CatD) (Homo sapiens (Human), UniProt P07339); test: CatD assay; assay type: biochemical; conditions: read-out: IC50 IP (μM) CatD
BACE1 [1] = target: T1, BACE1 (Homo sapiens (Human), UniProt P56817); test: In vitro enzymatic BACE1 FRET assay; assay type: biochemical; conditions: read-out: IC50 IP (μM) BACE1 Enzyme
BACE1 [2] = target: T1, BACE1; test: BACE1 cell assay; assay type: cell-based; conditions: read-out: IC50 IP (μM) BACE1 Cell
BACE2 = BACE2 (Homo sapiens (Human), UniProt Q9Y5Z0); test: In vitro enzymatic BACE2 FRET assay; assay type: biochemical; conditions: read-out: IC50 IP (μM) BACE2 Enzyme

Structure (SMILES) | IC50 (BACE1 [1]) [µM] | IC50 (BACE1 [2]) [µM] | IC50 (Cathepsin D (CatD)) [µM] | other results
C[C@]1(c2cc(/C=C(\F)c3cnc(C#N)cn3)ccc2F)N=C(N)S[C@@]2(C(=O)N3CCOCC3)C[C@H]21 [Example 200, 5-((Z)-2-(3-((1S,5S,6S)-3-amino-5-methyl-1-(morpholine-4-carbonyl)-2-thia-4-azabicyclo[4.1.0]hept-3-en-5-yl)-4-fluorophenyl)-1-fluorovinyl)pyrazine-2-carbonitrile] | – | – | 89.8 | –
C[C@]1(c2cc(/C=C(\F)c3ccc(C#N)cn3)ccc2F)N=C(N)S[C@@]2(C(=O)N3CCO[C@@H]4C[C@@H]43)C[C@H]21 (single isomer, unassigned) [Example 312] | – | – | 714 | –
Cc1cc(C#N)cnc1/C(F)=C/c1ccc(F)c([C@@]2(C)N=C(N)S[C@@]3(C(=O)N4CCOCC4)C[C@H]32)c1 [Example 160, 6-((Z)-2-(3-((1S,5S,6S)-3-amino-5-methyl-1-(morpholine-4-carbonyl)-2-thia-4-azabicyclo[4.1.0]hept-3-en-5-yl)-4-fluorophenyl)-1-fluorovinyl)-5-methylnicotinonitrile] | – | – | 311 | –
CN(C)C(=O)[C@]12C[C@H]1[C@@](C)(c1cc(/C=C(\F)c3cnc(C#CC4CC4)cn3)ccc1F)N=C(N)S2 [Example 159, (1S,5S,6S)-3-amino-5-(5-((Z)-2-(5-(cyclopropylethynyl)pyrazin-2-yl)-2-fluorovinyl)-2-fluorophenyl)-N,N,5-trimethyl-2-thia-4-azabicyclo[4.1.0]hept-3-ene-1-carboxamide] | – | – | – | IC50 (BACE2): 0.0196 µM
C[C@]1(c2cc(/C=C(\F)c3ccc(Cl)cn3)ccc2F)N=C(N)S[C@@]2(C(=O)N3CCC3)C[C@H]21 [Example 112, ((1S,5S,6S)-3-amino-5-(5-((Z)-2-(5-chloropyridin-2-yl)-2-fluorovinyl)-2-fluorophenyl)-5-methyl-2-thia-4-azabicyclo[4.1.0]hept-3-en-1-yl)(azetidin-1-yl)methanone] | – | – | – | IC50 (BACE2): 0.00672 µM
C[C@]1(c2cc(/C=C(\F)c3ccc(C#N)cn3)ccc2F)N=C(N)S[C@@]2(C(=O)N3CCO[C@H]4C[C@H]43)C[C@H]21 [Example 311, 6-((Z)-2-(3-((1S,5S,6S)-3-amino-1-((1S,6R)-2-oxa-5-azabicyclo[4.1.0]heptane-5-carbonyl)-5-methyl-2-thia-4-azabicyclo[4.1.0]hept-3-en-5-yl)-4-fluorophenyl)-1-fluorovinyl)nicotinonitrile] | – | – | 681 | –

Now from value to compound, other results behind:

IC50 (BACE1 [1]) [µM] | IC50 (BACE1 [2]) [µM] | Structure (SMILES) | IC50 (Cathepsin D (CatD)) [µM] | other results
0.0006 | 0.0003 | C[C@]1(O)CCN(C(=O)[C@]23C[C@H]2[C@@](C)(c2cc(/C=C(\F)c4ccc(C#N)cn4)ccc2F)N=C(N)S3)C1 [Example 309, 6-((Z)-2-(3-((1S,5S,6S)-3-amino-1-((S)-3-hydroxy-3-methylpyrrolidine-1-carbonyl)-5-methyl-2-thia-4-azabicyclo[4.1.0]hept-3-en-5-yl)-4-fluorophenyl)-1-fluorovinyl)nicotinonitrile] | – | –
0.0009 | 0.0006 | C[C@@]1(O)CCN(C(=O)[C@]23C[C@H]2[C@@](C)(c2cc(/C=C(\F)c4ccc(C#N)cn4)ccc2F)N=C(N)S3)C1 (single isomer, unassigned) [Example 310] | – | –
0.00253 | 0.00287 | CN(C)C(=O)[C@]12C[C@H]1[C@@](C)(c1cc(/C=C(\F)c3ccc(C#N)cn3)ccc1F)N=C(N)S2 [Example 106, (1S,5S,6S)-3-amino-5-(5-((Z)-2-(5-cyanopyridin-2-yl)-2-fluorovinyl)-2-fluorophenyl)-N,N,5-trimethyl-2-thia-4-azabicyclo[4.1.0]hept-3-ene-1-carboxamide] | – | –
